Target: Histone deacetylase 3 (Homo sapiens, UniProt O15379)
Experiment: Inhibition of human recombinant HDAC3
Procedure, shortened: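 Recombinant HDAC isoforms incubated with acetyl-lysine tripeptide–AMC substrate (mimics histone H4 K12), or trifluoroacetyl-lysine-AMC for class IIa enzymes, each substrate at its Km; trypsin cleavage of deacetylated product releases fluorescent AMC. IC50 from two experiments in duplicate, mean ± SD.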

The chains behind the UniProt entries cited, without tags or fusion partners. Where a name states a change or a piece, a line headed by the entry shows the natural chain unless it says otherwise.
UniProt O15379: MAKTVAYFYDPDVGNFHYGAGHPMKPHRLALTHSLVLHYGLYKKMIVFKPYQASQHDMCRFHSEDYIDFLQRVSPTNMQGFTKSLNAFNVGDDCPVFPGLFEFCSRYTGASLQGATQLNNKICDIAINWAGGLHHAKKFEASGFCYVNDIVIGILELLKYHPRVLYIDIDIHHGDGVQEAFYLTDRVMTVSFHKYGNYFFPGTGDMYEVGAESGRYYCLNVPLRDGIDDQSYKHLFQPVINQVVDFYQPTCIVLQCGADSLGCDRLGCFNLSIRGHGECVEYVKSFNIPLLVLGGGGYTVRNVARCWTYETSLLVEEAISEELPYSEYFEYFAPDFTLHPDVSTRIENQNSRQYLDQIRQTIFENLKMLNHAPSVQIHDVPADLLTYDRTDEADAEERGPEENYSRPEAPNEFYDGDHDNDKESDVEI

IC50: 161 µM
SMILES: CCCC(CCC)C(=O)O [VALPROIC ACID]
